# scFv variants of Ab-14 (light chain) against a SARS-CoV-2 spike peptide

Data: MIT Lincoln Laboratory AlphaSeq set, Li et al. 2023, doi:10.1038/s41467-023-39022-2, as distributed in FLAb.

All variants were tested on one target, the spike HR2 peptide PDVDLGDISGINAS (SARS-CoV-2).

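The parent was found by panning a naive human phage display library on the peptide. These sequences belong to a second round, designed from the earlier measurements on random variants of the parent. Group labels follow the data file (Ctrl: baseline library sampled from a position-specific scoring matrix, with some repeated check sequences; GP: Gaussian process model; HC: hill climbing; Gen: genetic algorithm; Gibbs: Gibbs sampling; a sequence that several methods proposed may carry one label only). AlphaSeq pools MATa yeast showing the antibodies with MATalpha yeast showing the peptide. The frequency of each diploid, read from paired DNA barcodes, reflects how well the two displayed proteins bind. The ratio of observed to expected reads was calibrated, replicate by replicate, on BCL2-family standards whose Kd was known from biolayer interferometry. Each pool was mated in six replicate cultures.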

Ab-14 is the parent antibody, in scFv form: VH, then a 15-residue (Gly4Ser)3 linker, then VL. The heavy chain is unchanged in all variants.
VH: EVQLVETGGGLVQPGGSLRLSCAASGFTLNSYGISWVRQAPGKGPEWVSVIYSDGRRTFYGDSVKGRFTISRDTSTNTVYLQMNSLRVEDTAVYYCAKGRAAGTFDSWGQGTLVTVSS
VL: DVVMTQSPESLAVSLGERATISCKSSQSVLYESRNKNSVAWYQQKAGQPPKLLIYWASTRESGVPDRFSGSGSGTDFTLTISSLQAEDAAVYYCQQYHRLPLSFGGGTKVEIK

Substitutions are numbered in sequence along the VL above, starting at 1 (not Kabat). Variants here have at most six changes. Numbers give log10(Kd / nM), so 0 is 1 nM and 3 is 1 µM. Smaller is tighter. "nd" marks a missing value. The strain was present, yet no cells mated with the target were sequenced in that replicate, which points to weak or no binding.

With S33H V39C [Ctrl] the result was nd, nd, nd, nd, nd, nd. The variant S25L S28E V29G W56D [GP_HC] gave 0.04, 0.19, -0.11, -0.36, -0.11, -0.08. The variant S25L S33D N35M W56N E61M [GP_Gen] showed -0.04, -0.25, -0.21, -0.30, -0.19, -0.14. With L30D S33I K36V H98Q [Ctrl] the result was 1.48, 2.60, nd, 1.37, 1.29, 2.84. For S26M W56E R99I S103N [Ctrl], the assay gave 1.40, 1.57, 1.74, 2.77, 1.67, 1.73. The variant S25V W56E S62L [GP_Gen] showed -0.10, -0.19, -0.19, -0.10, -0.29, -0.01. For V29F S33D E61V Q96D [Ctrl], the assay gave 0.62, 0.36, 0.78, -0.04, 0.27, 0.42.

The variant K36V W56G E61D [GP_HC] showed nd, 0.46, 0.99, nd, 1.34, nd. The variant S25M S26M L30Y Y31F S62L [Ctrl] showed nd, 0.99, 1.61, 1.61, 1.87, 2.08. With S26R Y31S [Ctrl] the result was 1.80, 2.25, 2.04, nd, 3.42, nd. For K24H S25L Q27D W56N S62Q S103N [GP_HC], the assay gave 0.58, 0.57, 0.28, 0.47, 0.80, 0.63. For S25V Q27M V29Q W56N [GP_Gen], the assay gave 0.10, -0.25, -0.12, -0.23, -0.20, 0.03. The variant S25L S33M N35F W56Q S58V E61M [GP_Gibbs] showed 1.03, 1.29, 1.02, 1.22, 1.10, 1.20. With S25V S26Y Q27P V29Y W56E [GP_HC] the result was -0.26, -0.19, -0.37, -0.46, -0.27, -0.26.

The variant W56S L100I S103I [Ctrl] gave 0.67, 2.86, 1.83, 1.68, 1.11, 1.66. With V29W K36F N37G W56G [GP_HC] the result was 0.92, 0.34, 0.64, 0.26, 0.37, 0.87. The variant S25L S26Q L30M W56N E61M [GP_Gen] showed 0.44, 0.03, 0.17, 0.11, 0.36, 0.27. The variant S25V Q27E W56N Q96E [Ctrl] gave 0.35, 0.17, 0.35, -0.17, 0.22, 0.24. For S25L E32L W56E [GP_Gen], the assay gave -0.08, -0.18, -0.17, -0.34, -0.26, 0.10. For S25L S26Q W56N S62L [GP_Gen], the assay gave 0.02, -0.16, -0.28, -0.26, 0.05, -0.04. With Q27P S28V R34Q W56N E61M [GP_HC] the result was 0.16, -0.01, -0.11, -0.05, -0.07, 0.15.

For Q27V Y31F W56N [GP_HC], the assay gave 0.07, 0.24, -0.01, -0.31, 0.16, 0.26. The variant S26E Q27C S28G W56G [GP_HC] gave 0.23, 0.12, 0.04, -0.23, -0.34, 0.17. The variant V29M W56R E61A [Ctrl] gave 2.54, 2.77, 2.56, 2.66, 3.08, 3.30. With Q96L H98M S103T [Ctrl] the result was 1.84, 1.75, nd, 1.46, 2.40, 2.22. The variant S25L S26M V29F W56N [GP_Gen] showed -0.06, -0.10, 0.13, -0.17, -0.01, 0.08. With Q95V H98F L102F [Ctrl] the result was nd, nd, nd, nd, nd, nd. With Q27T R34H W56N E61M [GP_HC] the result was 0.82, 0.44, 0.34, 0.54, 0.30, 0.76.

With S26R V29L L30E [Ctrl] the result was nd, 1.88, 1.94, nd, 1.43, nd. The variant S28P N37D Y97V [Ctrl] gave 2.33, 2.44, 2.29, nd, nd, 2.35. The variant Q27L V29G N35M W56E [GP_HC] showed 0.06, 0.36, 0.03, -0.21, -0.06, 0.25. For S25L V29D S38A W56E T59Q [GP_Gen], the assay gave -0.09, -0.02, -0.19, -0.20, -0.14, -0.14. The variant Q27M H98M [Ctrl] showed 1.51, 2.12, 1.28, 1.28, 0.99, 1.05. With S25W S26A Q27W V29Q W56N H98R [GP_Gibbs] the result was 0.33, -0.17, -0.24, -0.36, 0.05, -0.01. The variant S25L Y31M W56N [GP_Gen] showed 0.08, 0.42, 0.25, 0.94, 0.17, 0.16.

The variant S25L S26Q L30E W56Q E61L [GP_Gen] showed 0.09, -0.30, -0.27, -0.45, -0.04, -0.03. The variant R34W W56T [Ctrl] showed 0.45, 0.78, 0.99, 0.05, 0.09, 0.24. The variant S26M L30P Y31G S33D W56E E61C [GP_Gibbs] showed -0.10, -0.02, -0.28, -0.27, -0.37, -0.11. With K24Y S25Q Y31Q E61L Y97E [Ctrl] the result was nd, nd, nd, nd, nd, nd. The variant S25Q S33N R34V W56D [GP_HC] showed 0.44, 0.54, 0.49, 0.34, 0.67, 0.47. For L30W W56A P101N [Ctrl], the assay gave 1.67, 3.39, nd, 0.79, 2.19, 1.91. The variant L30P W56Q S62L H98A S103A [Ctrl] showed 0.48, 0.59, 0.46, 0.45, 0.31, 0.46.

Excerpt, the first 6 entries:

The variant S33H V39C [Ctrl] showed nd, nd, nd, nd, nd, nd.
The variant S25L S28E V29G W56D [GP_HC] showed 0.04, 0.19, -0.11, -0.36, -0.11, -0.08.
The variant S25L S33D N35M W56N E61M [GP_Gen] showed -0.04, -0.25, -0.21, -0.30, -0.19, -0.14.
The variant L30D S33I K36V H98Q [Ctrl] showed 1.48, 2.60, nd, 1.37, 1.29, 2.84.
The variant S26M W56E R99I S103N [Ctrl] showed 1.40, 1.57, 1.74, 2.77, 1.67, 1.73.
The variant S25V W56E S62L [GP_Gen] showed -0.10, -0.19, -0.19, -0.10, -0.29, -0.01.

The range of this assay differs from that of the first round, and the authors advise against merging the two. The authors averaged sequences with at least three values out of six and counted those with two or fewer as poor binders. Three control strains display no target. For all light chain designs, 4% of the pairings with them gave a signal, with a median of 2.64 and one signal in twenty below 1.59, so weak values seen in few replicates may be background.